39 compounds from PubChem BioAssay AID995 (National Center for Advancing Translational Sciences (NCATS), 2007) can be followed below.

Structures are written as SMILES. Where “and” joins values, the source holds several entries; their conditions need not be identical. Identical values can stand only once. The list shows a part of the results, in another mix than the full data. Inconclusive results are not listed. Calls of active or inactive are those of the source. The call rests on the fitted dose curve; in most records, active means well fitted inhibition curve with a large enough effect; inconclusive means small, poorly fitted or top-dose-only effect; inactive means no such curve, though single readings can be large or run the other way.
On the % scale 0 is the no-effect control and ±100 the full control effect.

A short description of the experiment: qHTS Assay for Inhibitors of the ERK Signaling Pathway using a Homogeneous Screening Assay. Further: nearly all actives have a fitted effect of over 55% in size. The following applies: HEK293-V1b, vasopressin-stimulated pERK AlphaScreen; at 57.5 µM (top of the series) unless noted. (In general: Quantitative high-throughput screening tests each substance at several concentrations.)
`CCOP1(=S)c2c(C)nn(CCC#N)c2N=C(c2ccc(F)cc2)N1C` (centres undefined): the activity, negative = inhibition was inactive: -10.4%.
Turning to `O=P(Nc1nccs1)(c1ccccc1)c1nc2ccccc2s1` (centres undefined), the activity, negative = inhibition was inactive: -5.13%.
With `CCOP1(=S)c2c(C)nn(CCC#N)c2N=C(c2ccccc2F)N1C` (centres undefined) the figure was inactive: 9.66%; with `O=[As](O)(O)c1ccc([As](=O)(O)O)cc1`, inactive: 14.7% [at 11.5 µM].
As for `NS(=O)(=O)Cc1ccc([As](=O)(O)O)cc1`, the activity, negative = inhibition was inactive: -4.37% [at 11.5 µM].
As to `O=C(CC(=O)c1ccccc1)O[C@H]1CN2CCC1CC2`, the activity, negative = inhibition was inactive: -6.66% [at 11.5 µM].
With `CN(C(=O)Cc1ccc(Cl)c(Cl)c1)[C@@H]1CC[C@@]2(CCCO2)C[C@H]1N1CCCC1` the figure was inactive: 5.88%; with `CN(C(=O)Cc1ccc(Cl)c(Cl)c1)[C@@H]1CCCC[C@H]1N1CCCC1`, inactive: 9.84% [middle of 4 runs]; with `CN(CCCl)Cc1cc(Cl)c(NC2=NCCN2)c(Cl)c1`, inactive: 7.91%.
Regarding `O=P1(Nc2ccccn2)COc2ccccc2OC1`, the activity, negative = inhibition was inactive: -24.8%.
As for `Clc1n[nH]nc1-c1nn[nH][15n]1`, the activity, negative = inhibition was inactive: -4.53%.
With `O=P1(Nc2ncccn2)COc2ccccc2OC1` the figure was inactive: -13.4%; with `O=P1(Nc2ccc(Br)cn2)COc2ccccc2OC1`, inactive: 49%.
With `Cc1nn(-c2ccccc2)c2c1P(=O)(N1CCOCC1)N(C)C(c1ccccc1)=N2` (centres undefined) the figure was inactive: 9.75%; with `CN(N=O)C(=N)N[N+](=O)[O-]`, inactive: 6.19%.
With `COP1(=S)c2c(C)nn(CCC#N)c2N=C(c2ccc(F)cc2)N1C` (centres undefined), the activity, negative = inhibition was inactive: -4.06%.
Consider `O=C(COc1ccccc1)OC1CN2CCC1CC2` (centres undefined), for which the activity, negative = inhibition was inactive: -13%.
For `O=C(O)[C@@H](O)c1ccc([As](=O)(O)O)cc1`, the activity, negative = inhibition was inactive: -5.58% [at 11.5 µM].
With `O=C(OC1CN2CCC1CC2)C12CC3CC(CC(C3)C1)C2` (centres undefined) the figure was inactive: -8.47%; with `NC(=O)Nc1cc([As](=O)(O)O)cc(I)c1O`, inactive: -21.7% [at 11.5 µM]; with `[N-]=[N+]=NCC(N)=O`, inactive: -11.3% [at 11.5 µM].
`O=[As]c1ccc(S(=O)(=O)NCCO)cc1` (centres undefined): the activity, negative = inhibition was inactive: 24.9% [at 11.5 µM].
For the compound `[N-]=[N+]=NCC(O)CN=[N+]=[N-]` (centres undefined), the activity, negative = inhibition is inactive: 0.805% [at 11.5 µM].
Regarding `C(Cc1nn[nH]n1)c1nn[nH]n1`, the activity, negative = inhibition was inactive: -8.14% [at 11.5 µM].
With `CN(C(=O)Cc1ccc(Cl)c(Cl)c1)[C@H]1CCCC[C@@H]1N1CCCC1` the figure was inactive: 19.7% and inactive: 7.26% and inactive: 19.4%.
With `NCC[C@@H](N)CSP(=O)(O)O` the figure was inactive: 2.86% [at 11.5 µM].
With `O=[N+]([O-])c1ccc(C[As](=O)(O)O)cc1` the figure was inactive: -16.3% [at 11.5 µM].
Turning to `O=C(CO)Nc1ccc([As](=O)(O)O)cc1`, the activity, negative = inhibition is inactive: 4.14% [at 11.5 µM].
With `CCc1nc2c(n1)c1c(non1O)c1c2no[n+]1[O-]` the figure was inactive: 13.8%; with `CN(C(=O)Cc1ccccc1)[C@@H]1CC[C@@]2(CCCO2)C[C@H]1N1CCCC1`, inactive: 19.2%.
As to `O=C(OC1CN2CCC1CC2)c1cccc(Cl)c1` (centres undefined), the activity, negative = inhibition was inactive: -19%.
With `Cc1cc([N+](=O)[O-])cc([N+](=O)[O-])c1O` the figure was inactive: -14.4%.
For the compound `[N-]=[N+]=Nc1ccc([As](=O)(O)O)cc1`, the activity, negative = inhibition is inactive: 6.74% [at 11.5 µM].
With `CN1CCC[C@H](OC(=O)C(c2ccccc2)c2ccccc2)C1` the figure was inactive: 3.77% [at 11.5 µM]; with `C[C@@H](O)COc1ccc([As](=O)(O)O)cc1N`, inactive: -20.3% [at 11.5 µM]; with `O=P(Nc1nccs1)(c1ccccc1)c1ccccc1`, inactive: 3.17%.
With `c1nnnn1CCn1cnnn1` the figure was inactive: 12.5%.
With `O=P1(Nc2nc3ccc(Cl)cc3s2)COc2ccccc2O1` (centres undefined) the figure was inactive: -19.8%; with `COC(=O)c1cc2c(s1)N=C(c1ccccc1)N(C)P2(=O)N1CCOCC1` (centres undefined), inactive: 5.77%.
